# Test results: patent US9867833B2, “Serine/threonine kinase inhibitors” (GENENTECH, INC., priority 2013, dated 2018)
# Protein sequences, listed by entry. Tags and fused reporters are not part of them. Residues count along the entry.
# UniProt P28482, 8-360: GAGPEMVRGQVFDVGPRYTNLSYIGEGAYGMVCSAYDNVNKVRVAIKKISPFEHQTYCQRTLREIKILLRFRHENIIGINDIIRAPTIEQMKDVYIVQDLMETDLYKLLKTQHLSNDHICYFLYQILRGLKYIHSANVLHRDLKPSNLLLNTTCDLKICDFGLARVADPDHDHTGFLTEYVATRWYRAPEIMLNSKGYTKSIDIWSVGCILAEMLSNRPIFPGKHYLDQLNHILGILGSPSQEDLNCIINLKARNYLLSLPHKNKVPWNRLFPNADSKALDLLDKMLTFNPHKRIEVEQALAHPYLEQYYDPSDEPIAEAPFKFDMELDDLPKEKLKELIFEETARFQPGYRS
# Target: human ERK-2 (Mitogen Activated Kinase 1) (Homo sapiens (Human), UniProt P28482)
# Test: ERK-2 Enzymatic Assay
# Type: biochemical
# Settings: human ERK-2 enzyme 5 nM, 25 μM ATP, S/T17 peptide substrate; isomer = configuration of CR2R3
# Experimental: Compounds were tested in an enzymatic assay using human ERK-2 (Mitogen Activated Kinase 1), recombinantly expressed as an n-terminal 6-His fusion protein in E. coli and corresponding to aa 8-360. […] Test compounds were diluted in DMSO in 3-fold serial dilutions at 100× final concentrations. […] The data collected from each well was fit to a straight line, and the resulting rates were used to calculate percent of control. Percent of control was plotted against compound concentration, and IC50 values were determined using a four-parameter fit.
row,pIC50,Structure (SMILES)
1,9.29,"CC(C)C1CC(=O)N(C)c2cc(-c3ccnc(Nc4ccnn4C)n3)cc3nnc1n23 (single isomer, unassigned) [(R) I-69, 9-isopropyl-6-methyl-4-(2-((1-methyl-1H-pyrazol-5-yl)amino)pyrimidin-4-yl)-8,9-dihydro-1,2,2a^1,6-tetraazabenzo[cd]azulen-7(6H)-one]"
2,> 10.70,"CN1C[C@H](Cc2ccc(Cl)cc2)c2nnc3cc(-c4ccnc(Nc5ccnn5C)c4)cc1n23 (single isomer, unassigned) [(S) I-13, 4-(3-(4-chlorobenzyl)-5-methyl-4,5-dihydro-3H-1,2,2a^1,5-tetraazaacenaphthylen-7-yl)-N-(1-methyl-1H-pyrazol-5-yl)pyridin-2-amine]"
3,6.43,"CC(C)C1CC(=O)N(C)c2cc(-c3ccnc(Nc4ccnn4C)n3)cc3nnc1n23 (single isomer, unassigned) [(S) I-69, 9-isopropyl-6-methyl-4-(2-((1-methyl-1H-pyrazol-5-yl)amino)pyrimidin-4-yl)-8,9-dihydro-1,2,2a^1,6-tetraazabenzo[cd]azulen-7(6H)-one]"
4,> 10.70,"C[C@H]1Oc2cc(-c3ccnc(Nc4ccnn4C)n3)cc3nnc(n23)[C@H]1Cc1ccccc1 [(3R 4R) I-76, 4-(3-benzyl-4-methyl-3,4-dihydro-5-oxa-1,2,2a^1-triazaacenaphthylen-7-yl)-N-(1-methyl-1H-pyrazol-5-yl)pyrimidin-2-amine]"
5,> 10.70,"C[C@@H]1Oc2cc(-c3ccnc(Nc4ccnn4C)n3)cc3nnc(n23)[C@H]1Cc1ccccc1 [(3R 4S) I-72, 4-(3-benzyl-4-methyl-3,4-dihydro-5-oxa-1,2,2a^1-triazaacenaphthylen-7-yl)-N-(1-methyl-1H-pyrazol-5-yl)pyrimidin-2-amine]"
6,> 10.70,"Cn1nccc1Nc1nccc(-c2cc3n4c(nnc4c2)[C@@H](Cc2ccccc2)CS3)n1 [(R) I-16, 4-(3-benzyl-3,4-dihydro-5-thia-1,2,2a^1-triazaacenaphthylen-7-yl)-N-(1-methyl-1H-pyrazol-5-yl)pyrimidin-2-amine]"
7,8.64,"COc1cccc(C[C@@H]2CNc3cc(-c4ccnc(Nc5ccnn5C)n4)cc4nnc2n34)n1 [(R) I-27, 4-(3-((6-methoxypyridin-2-yl)methyl)-4,5-dihydro-3H-1,2,2a^1,5-tetraazaacenaphthylen-7-yl)-N-(1-methyl-1H-pyrazol-5-yl)pyrimidin-2-amine]"
8,> 10.70,"Cn1nccc1Nc1nccc(-c2cc3n4c(nnc4c2)[C@@H](Cc2ccc(Cl)cc2)CO3)n1 [(R) I-41, 4-(3-(4-chlorobenzyl)-3,4-dihydro-5-oxa-1,2,2a^1-triazaacenaphthylen-7-yl)-N-(1-methyl-1H-pyrazol-5-yl)pyrimidin-2-amine]"
9,> 10.70,"COc1ccc(C[C@H]2COc3cc(-c4ccnc(Nc5ccnn5C)c4)cc4nnc2n34)cc1F [(R) I-49, 4-(3-(3-fluoro-4-methoxybenzyl)-3,4-dihydro-5-oxa-1,2,2a^1-triazaacenaphthylen-7-yl)-N-(1-methyl-1H-pyrazol-5-yl)pyridin-2-amine]"
10,> 10.70,"Cn1nccc1Nc1nccc(-c2cc3n4c(nnc4c2)[C@@H](Cc2ccc(F)c(F)c2)CO3)n1 [(R) I-53, 4-(3-(3,4-difluorobenzyl)-3,4-dihydro-5-oxa-1,2,2a^1-triazaacenaphthylen-7-yl)-N-(1-methyl-1H-pyrazol-5-yl)pyrimidin-2-amine]"
11,> 10.70,"Cn1nccc1Nc1cc(-c2cc3n4c(nnc4c2)[C@@H](Cc2ccc(F)cc2)CO3)ccn1 [(R) I-57, 4-(3-(4-fluorobenzyl)-3,4-dihydro-5-oxa-1,2,2a^1-triazaacenaphthylen-7-yl)-N-(1-methyl-1H-pyrazol-5-yl)pyridin-2-amine]"
12,> 10.70,"COc1ccc(C[C@@H]2CCOc3cc(-c4ccnc(Nc5ccnn5C)n4)cc4nnc2n34)cc1F [(R) I-59, 4-(9-(3-fluoro-4-methoxybenzyl)-8,9-dihydro-7H-6-oxa-1,2,2a^1-triazabenzo[cd]azulen-4-yl)-N-(1-methyl-1H-pyrazol-5-yl)pyrimidin-2-amine]"
13,10.14,"CN1C(=O)C[C@@H](Cc2ccccc2)c2nnc3cc(-c4ccnc(Nc5ccnn5C)c4)cc1n23 [(R) I-61, 9-benzyl-6-methyl-4-(2-((1-methyl-1H-pyrazol-5-yl)amino)pyridin-4-yl)-8,9-dihydro-1,2,2a^1,6-tetraazabenzo[cd]azulen-7(6H)-one]"
14,> 10.70,"COc1ccc(C[C@@H]2CC(=O)N(C)c3cc(-c4ccnc(Nc5ccnn5C)c4)cc4nnc2n34)cc1 [(R) I-63, 9-(4-methoxybenzyl)-6-methyl-4-(2-((1-methyl-1H-pyrazol-5-yl)amino)pyridin-4-yl)-8,9-dihydro-1,2,2a^1,6-tetraazabenzo[cd]azulen-7(6H)-one]"
15,9.88,"CC(C)C[C@@H]1CC(=O)N(C)c2cc(-c3ccnc(Nc4ccnn4C)n3)cc3nnc1n23 [(R) I-68, 9-isobutyl-6-methyl-4-(2-((1-methyl-1H-pyrazol-5-yl)amino)pyrimidin-4-yl)-8,9-dihydro-1,2,2a^1,6-tetraazabenzo[cd]azulen-7(6H)-one]"
16,9.50,"CN1C(=O)C[C@@H](Cc2ccc(F)cc2)c2nnc3cc(-c4ccnc(Nc5ccnn5C)c4)cc1n23 [(R) I-70, 9-(4-fluorobenzyl)-6-methyl-4-(2-((1-methyl-1H-pyrazol-5-yl)amino)pyridin-4-yl)-8,9-dihydro-1,2,2a^1,6-tetraazabenzo[cd]azulen-7(6H)-one]"
17,8.05,"CN1C(=O)C[C@H](CC(F)(F)F)c2nnc3cc(-c4ccnc(Nc5ccnn5C)c4)cc1n23 [(R) I-86, 6-methyl-4-(2-((1-methyl-1H-pyrazol-5-yl)amino)pyridin-4-yl)-9-(2,2,2-trifluoroethyl)-8,9-dihydro-1,2,2a^1,6-tetraazabenzo[cd]azulen-7(6H)-one]"
18,8.62,"Cn1nccc1C[C@@H]1CCOc2cc(-c3ccnc(Nc4ccnn4C)n3)cc3nnc1n23 [(R) I-92, N-(1-methyl-1H-pyrazol-5-yl)-4-(9-((1-methyl-1H-pyrazol-5-yl)methyl)-8,9-dihydro-7H-6-oxa-1,2,2a^1-triazabenzo[cd]azulen-4-yl)pyrimidin-2-amine]"
19,> 10.70,"CCN1C[C@H](Cc2ccccc2)c2nnc3cc(-c4ccnc(Nc5ccnn5C)n4)cc1n23 [(S) I-17, 4-(3-benzyl-5-ethyl-4,5-dihydro-3H-1,2,2a^1,5-tetraazaacenaphthylen-7-yl)-N-(1-methyl-1H-pyrazol-5-yl)pyrimidin-2-amine]"
20,8.23,"CN1C(=O)C[C@H](Cc2ccccc2)c2nnc3cc(-c4ccnc(Nc5ccnn5C)c4)cc1n23 [(S) I-61, 9-benzyl-6-methyl-4-(2-((1-methyl-1H-pyrazol-5-yl)amino)pyridin-4-yl)-8,9-dihydro-1,2,2a^1,6-tetraazabenzo[cd]azulen-7(6H)-one]"
21,7.28,"CC(C)C[C@H]1CC(=O)N(C)c2cc(-c3ccnc(Nc4ccnn4C)n3)cc3nnc1n23 [(S) I-68, 9-isobutyl-6-methyl-4-(2-((1-methyl-1H-pyrazol-5-yl)amino)pyrimidin-4-yl)-8,9-dihydro-1,2,2a^1,6-tetraazabenzo[cd]azulen-7(6H)-one]"
22,7.76,"CN1C(=O)C[C@H](Cc2ccc(F)cc2)c2nnc3cc(-c4ccnc(Nc5ccnn5C)c4)cc1n23 [(S) I-70, 9-(4-fluorobenzyl)-6-methyl-4-(2-((1-methyl-1H-pyrazol-5-yl)amino)pyridin-4-yl)-8,9-dihydro-1,2,2a^1,6-tetraazabenzo[cd]azulen-7(6H)-one]"
23,6.67,"CN1C(=O)C[C@@H](CC(F)(F)F)c2nnc3cc(-c4ccnc(Nc5ccnn5C)c4)cc1n23 [(S) I-86, 6-methyl-4-(2-((1-methyl-1H-pyrazol-5-yl)amino)pyridin-4-yl)-9-(2,2,2-trifluoroethyl)-8,9-dihydro-1,2,2a^1,6-tetraazabenzo[cd]azulen-7(6H)-one]"
24,10.07,"Cn1nccc1C[C@H]1CCOc2cc(-c3ccnc(Nc4ccnn4C)n3)cc3nnc1n23 [(S) I-92, N-(1-methyl-1H-pyrazol-5-yl)-4-(9-((1-methyl-1H-pyrazol-5-yl)methyl)-8,9-dihydro-7H-6-oxa-1,2,2a^1-triazabenzo[cd]azulen-4-yl)pyrimidin-2-amine]"
25,> 10.70 and 10.09,"CCC(C#N)C1CCOc2cc(-c3ccnc(Nc4ccnn4C)n3)cc3nnc1n23 [(S) I-105, (S)-2-[4-(2-((1-methyl-1H-pyrazol-5-yl)amino)pyrimidin-4-yl)]-8,9-dihydro-7H-6-oxa-1,2,2a^1-triazabenzo[cd]azulen-9-yl)butanenitrile]"
26,9.76,"CN1C(=O)N[C@H](Cc2ccc(F)cc2)c2nnc3cc(-c4ccnc(Nc5ccnn5C)n4)cc1n23 [Compound I-35, (R)-9-(4-fluorobenzyl)-6-methyl-4-(2-((1-methyl-1H-pyrazol-5-yl)amino)pyrimidin-4-yl)-8,9-dihydro-1,2,2a^1,6,8-pentaazabenzo[cd]azulen-7(6H)-one]"

# pIC50: −log10 of the molar value. Where “and” joins values, the source holds several entries; their conditions need not be identical. Identical values can stand only once.
